Measured values as given in patent publication US12383633B1, “Injectable formulations of PARP inhibitors and uses thereof” (ZYMERON CORPORATION, priority 2024, dated 2025).

Protocol: 2.5 mL solutions of each excipient with each concentration were prepared by serial dilution of the saturated solution. One vial for each excipient experiment was prepared with 2.5 ml water. To each vial, 50 mg olaparib was added, sonicated, vortexed, and shaken at 40° C. for over 20 hr. After agitation at 25° C., the suspensions were filtered to obtain clear solutions. The clear solutions were analyzed using HPLC.
2.5 mL solutions of each excipient with each concentration were prepared by serial dilution of the 600 mg/mL solution. One vial for each excipient experiment was prepared with 2.5 mL water. To each vial, 50 mg olaparib was added, sonicated, vortexed, and shaken at 40° C. for over 20 hours. After agitation at 25° C., the suspensions were filtered to obtain clear solutions. The clear solutions were analyzed using HPLC.

## hydroxypropyl-γ-cyclodextrin [HP-γ-cyclodextrin]
  Solubility Enhancement Factor: 46
  olaparib water solubility improvement by excipient: 46 fold
